Laboratory results: article PMC12312913

Amino acid sequences for entries named in this document (tags omitted). Residues count along the entry.
UniProt P0A263, 22-378: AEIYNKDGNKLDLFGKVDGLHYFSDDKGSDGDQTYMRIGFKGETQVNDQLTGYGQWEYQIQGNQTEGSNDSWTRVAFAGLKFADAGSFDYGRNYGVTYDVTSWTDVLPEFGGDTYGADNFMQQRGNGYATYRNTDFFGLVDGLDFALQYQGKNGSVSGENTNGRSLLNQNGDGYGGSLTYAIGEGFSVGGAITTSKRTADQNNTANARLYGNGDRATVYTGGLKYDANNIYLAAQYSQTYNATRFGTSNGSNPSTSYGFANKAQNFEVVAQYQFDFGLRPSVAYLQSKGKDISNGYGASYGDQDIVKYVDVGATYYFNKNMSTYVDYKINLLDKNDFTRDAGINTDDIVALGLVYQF
UniProt P37409, 21-614: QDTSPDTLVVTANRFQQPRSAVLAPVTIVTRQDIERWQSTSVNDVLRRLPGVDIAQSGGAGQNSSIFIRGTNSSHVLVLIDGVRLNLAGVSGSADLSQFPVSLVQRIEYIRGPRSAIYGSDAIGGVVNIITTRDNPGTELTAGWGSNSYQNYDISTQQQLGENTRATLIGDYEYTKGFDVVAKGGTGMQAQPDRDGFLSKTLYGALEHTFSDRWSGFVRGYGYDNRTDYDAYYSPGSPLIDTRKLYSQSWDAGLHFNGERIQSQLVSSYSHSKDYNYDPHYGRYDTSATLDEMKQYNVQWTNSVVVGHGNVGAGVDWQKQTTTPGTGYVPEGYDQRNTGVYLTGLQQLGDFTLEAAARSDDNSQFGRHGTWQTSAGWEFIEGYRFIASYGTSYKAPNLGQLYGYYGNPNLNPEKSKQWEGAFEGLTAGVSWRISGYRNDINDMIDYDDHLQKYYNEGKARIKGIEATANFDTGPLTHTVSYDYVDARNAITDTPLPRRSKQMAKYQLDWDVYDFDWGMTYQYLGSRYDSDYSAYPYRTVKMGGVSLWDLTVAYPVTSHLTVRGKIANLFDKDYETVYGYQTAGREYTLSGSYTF

Tests used:
[1] = biological target: OmpC fused to TF and His tag (S. Typhimurium) (UniProt P0A263); test: BLI; details: natural protein
[2] = biological target: BtuB fused to TF and His tag (S. Typhimurium) (UniProt P37409); test: BLI; details: natural protein

Gifsy-1 central tail tip J protein with Flag tag
koff [1]: 9.99e-06 s⁻¹
koff [2]: 5.69e-07 s⁻¹
